Test results: ChEMBL document CHEMBL4138148, “Discovery of novel pyrrolo-pyridine/pyrimidine derivatives bearing pyridazinone moiety as c-Met kinase inhibitors” (Eur J Med Chem, 2017)

Assays:
Homo sapiens [1] = species: Homo sapiens; test: Selectivity ratio of IC50 for cKIT (unknown origin) to IC50 for c-MET (unknown origin)
Homo sapiens [2] = species: Homo sapiens; test: Selectivity ratio of IC50 for EGFR (unknown origin) to IC50 for c-MET (unknown origin)
Homo sapiens [3] = species: Homo sapiens; test: Selectivity ratio of IC50 for FLT3 (unknown origin) to IC50 for c-MET (unknown origin)
Homo sapiens [4] = species: Homo sapiens; test: Selectivity ratio of IC50 for VEGFR2 (unknown origin) to IC50 for c-MET (unknown origin)

Work on `O=C(Nc1ccc(Oc2ccnc3[nH]ccc23)cc1)c1nn(-c2ccc(Cl)c(C(F)(F)F)c2)ccc1=O` yielded a Ratio IC50 (Homo sapiens [1]) of 30.1, a Ratio IC50 (Homo sapiens [2]) of 137 and a Ratio IC50 (Homo sapiens [3]) of 10.5. For the same compound, the Ratio IC50 (Homo sapiens [4]) was 32.9.
